Earlier results on one molecule are cited in patent publication US20240207277A1, “Methods For Treating Drug and Vaccine Induced Immune Thrombocytopenia by Administering Specific Compounds” (Principia Biopharma Inc., priority 2021, published 2024).

The conditions of the series: anticoagulation and IVIg or plasma exchange failed; cited from earlier work.

B1: Eculizumab: anti-C5 monoclonal antibody (antibody, chains of the INN, looked up)
heavy: QVQLVQSGAEVKKPGASVKVSCKASGYIFSNYWIQWVRQAPGQGLEWMGEILPGSGSTEYTENFKDRVTMTRDTSTSTVYMELSSLRSEDTAVYYCARYFFGSSPNWYFDVWGQGTLVTVSSASTKGPSVFPLAPCSRSTSESTAALGCLVKDYFPEPVTVSWNSGALTSGVHTFPAVLQSSGLYSLSSVVTVPSSNFGTQTYTCNVDHKPSNTKVDKTVERKCCVECPPCPAPPVAGPSVFLFPPKPKDTLMISRTPEVTCVVVDVSQEDPEVQFNWYVDGVEVHNAKTKPREEQFNSTYRVVSVLTVLHQDWLNGKEYKCKVSNKGLPSSIEKTISKAKGQPREPQVYTLPPSQEEMTKNQVSLTCLVKGFYPSDIAVEWESNGQPENNYKTTPPVLDSDGSFFLYSRLTVDKSRWQEGNVFSCSVMHEALHNHYTQKSLSLSLG
light: DIQMTQSPSSLSASVGDRVTITCGASENIYGALNWYQQKPGKAPKLLIYGATNLADGVPSRFSGSGSGTDFTLTISSLQPEDFATYYCQNVLNTPLTFGQGTKVEIKRTVAAPSVFIFPPSDEQLKSGTASVVCLLNNFYPREAKVQWKVDNALQSGNSQESVTEQDSKDSTYSLSSTLTLSKADYEKHKVYACEVTHQGLSSPVTKSFNRGEC
With B1, the “clinical outcome in 2 patients with VITT” value was “rapidly improved”.
